Results from patent US11389438B2 (CHDI Foundation, Inc., priority 2019, dated 2022).

Protein sequences, listed by entry. Tags and fused reporters are not part of them. Chains listed by the source or under a name are the forms on record and can include a tag or linker.
UniProt P42858, with tags, fused parts or gaps with the stated changes: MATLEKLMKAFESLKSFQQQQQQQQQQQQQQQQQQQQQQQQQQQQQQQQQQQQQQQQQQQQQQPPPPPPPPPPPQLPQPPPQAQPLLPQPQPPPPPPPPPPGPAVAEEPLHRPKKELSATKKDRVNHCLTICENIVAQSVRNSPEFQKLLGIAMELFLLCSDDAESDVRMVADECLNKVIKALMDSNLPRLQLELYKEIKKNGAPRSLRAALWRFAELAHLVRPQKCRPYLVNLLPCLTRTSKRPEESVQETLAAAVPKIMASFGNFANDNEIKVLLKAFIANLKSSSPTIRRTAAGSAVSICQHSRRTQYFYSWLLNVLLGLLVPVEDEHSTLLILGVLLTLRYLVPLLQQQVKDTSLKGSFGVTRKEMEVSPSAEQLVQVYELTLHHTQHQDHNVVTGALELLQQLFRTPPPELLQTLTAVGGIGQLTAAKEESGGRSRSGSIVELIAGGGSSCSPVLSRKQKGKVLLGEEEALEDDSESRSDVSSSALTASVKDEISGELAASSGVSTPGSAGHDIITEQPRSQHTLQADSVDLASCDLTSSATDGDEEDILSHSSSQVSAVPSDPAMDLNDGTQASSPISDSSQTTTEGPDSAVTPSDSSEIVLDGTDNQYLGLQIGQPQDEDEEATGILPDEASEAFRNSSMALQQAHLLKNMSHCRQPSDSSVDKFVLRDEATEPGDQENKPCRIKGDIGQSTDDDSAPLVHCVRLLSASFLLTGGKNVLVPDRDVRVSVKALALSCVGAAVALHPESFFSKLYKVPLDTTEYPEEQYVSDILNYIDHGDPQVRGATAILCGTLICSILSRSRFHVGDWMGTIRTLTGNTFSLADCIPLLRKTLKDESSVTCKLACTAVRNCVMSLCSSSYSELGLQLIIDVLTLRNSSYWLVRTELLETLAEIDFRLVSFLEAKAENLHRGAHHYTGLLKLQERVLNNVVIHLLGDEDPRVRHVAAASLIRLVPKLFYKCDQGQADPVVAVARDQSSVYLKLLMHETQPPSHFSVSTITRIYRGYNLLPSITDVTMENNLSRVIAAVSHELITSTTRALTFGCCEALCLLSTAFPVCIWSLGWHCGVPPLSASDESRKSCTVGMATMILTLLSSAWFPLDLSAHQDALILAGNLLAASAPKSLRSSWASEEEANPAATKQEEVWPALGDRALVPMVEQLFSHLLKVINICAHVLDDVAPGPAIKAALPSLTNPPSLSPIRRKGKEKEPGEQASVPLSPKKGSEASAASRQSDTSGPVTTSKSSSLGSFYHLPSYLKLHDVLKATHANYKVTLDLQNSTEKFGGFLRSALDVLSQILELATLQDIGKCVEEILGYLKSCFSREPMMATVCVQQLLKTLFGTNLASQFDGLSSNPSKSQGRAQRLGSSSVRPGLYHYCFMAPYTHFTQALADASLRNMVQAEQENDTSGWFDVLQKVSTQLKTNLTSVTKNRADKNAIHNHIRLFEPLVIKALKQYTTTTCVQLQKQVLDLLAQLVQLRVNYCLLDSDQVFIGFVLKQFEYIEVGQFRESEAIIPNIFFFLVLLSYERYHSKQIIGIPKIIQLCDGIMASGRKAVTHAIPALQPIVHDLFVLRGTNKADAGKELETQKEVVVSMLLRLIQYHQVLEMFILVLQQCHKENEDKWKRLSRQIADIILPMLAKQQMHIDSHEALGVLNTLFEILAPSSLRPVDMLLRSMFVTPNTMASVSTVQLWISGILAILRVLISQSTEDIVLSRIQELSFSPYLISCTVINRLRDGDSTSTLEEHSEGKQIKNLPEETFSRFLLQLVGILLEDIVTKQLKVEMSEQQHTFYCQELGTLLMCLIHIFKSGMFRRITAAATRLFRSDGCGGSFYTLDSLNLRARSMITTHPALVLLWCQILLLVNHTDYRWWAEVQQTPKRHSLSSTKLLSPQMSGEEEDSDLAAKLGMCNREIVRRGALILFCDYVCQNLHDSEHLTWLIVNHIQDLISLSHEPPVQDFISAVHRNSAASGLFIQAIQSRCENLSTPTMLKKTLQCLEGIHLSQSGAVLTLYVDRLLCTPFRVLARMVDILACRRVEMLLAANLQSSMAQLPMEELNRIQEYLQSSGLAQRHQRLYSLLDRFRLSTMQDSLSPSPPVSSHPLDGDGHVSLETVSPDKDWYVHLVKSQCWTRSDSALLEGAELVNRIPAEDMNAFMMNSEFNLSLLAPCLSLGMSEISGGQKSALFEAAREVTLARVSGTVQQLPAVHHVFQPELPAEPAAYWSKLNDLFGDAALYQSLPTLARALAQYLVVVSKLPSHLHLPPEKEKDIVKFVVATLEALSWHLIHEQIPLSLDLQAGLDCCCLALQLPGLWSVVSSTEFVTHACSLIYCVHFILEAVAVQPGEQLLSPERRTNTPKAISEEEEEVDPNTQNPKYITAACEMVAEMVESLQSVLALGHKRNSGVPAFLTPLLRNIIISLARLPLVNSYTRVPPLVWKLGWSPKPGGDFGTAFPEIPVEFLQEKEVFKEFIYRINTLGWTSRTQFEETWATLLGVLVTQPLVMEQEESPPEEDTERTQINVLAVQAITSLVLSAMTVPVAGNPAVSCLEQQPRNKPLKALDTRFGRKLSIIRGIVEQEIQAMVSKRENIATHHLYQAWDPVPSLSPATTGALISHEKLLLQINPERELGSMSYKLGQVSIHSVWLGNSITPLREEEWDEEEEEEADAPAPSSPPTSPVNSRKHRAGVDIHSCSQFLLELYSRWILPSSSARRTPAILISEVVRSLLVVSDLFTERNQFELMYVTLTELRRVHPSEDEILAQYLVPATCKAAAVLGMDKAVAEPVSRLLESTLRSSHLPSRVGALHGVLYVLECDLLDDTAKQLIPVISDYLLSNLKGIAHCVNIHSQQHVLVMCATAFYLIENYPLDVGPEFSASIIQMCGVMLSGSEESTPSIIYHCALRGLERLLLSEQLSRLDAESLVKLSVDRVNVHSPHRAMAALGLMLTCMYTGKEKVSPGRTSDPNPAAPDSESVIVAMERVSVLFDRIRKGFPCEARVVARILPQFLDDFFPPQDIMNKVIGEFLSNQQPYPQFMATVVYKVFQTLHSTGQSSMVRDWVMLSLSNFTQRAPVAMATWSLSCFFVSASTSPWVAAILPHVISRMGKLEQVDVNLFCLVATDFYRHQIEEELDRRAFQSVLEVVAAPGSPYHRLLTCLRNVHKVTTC
UniProt P40337, whole entry: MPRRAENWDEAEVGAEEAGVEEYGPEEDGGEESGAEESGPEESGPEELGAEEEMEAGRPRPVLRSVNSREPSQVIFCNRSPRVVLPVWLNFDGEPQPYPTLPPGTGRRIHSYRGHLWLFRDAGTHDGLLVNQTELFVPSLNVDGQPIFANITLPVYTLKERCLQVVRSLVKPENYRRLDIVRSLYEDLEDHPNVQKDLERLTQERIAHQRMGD

Tests used:
[1] = molecular target: pre-formed polyQ46 or Exon1-polyQ46 aggregates (mHTT) (Homo sapiens, UniProt P42858, INS38QQQQQQQQQQQQQQQQQQQQQQQQQ); test: Q46_RBA radioligand binding assay (displacement of [3H]-radioligand); details: read-out: Q46_RBA IC50; class symbols
Procedure: Binding of W to mHTT. A radioligand binding assay was developed to screen for compounds which can efficiently displace a radioligand detailed elsewhere (see, e.g., U.S. Patent Publication No. from US 2017/0292150) pre-formed polyQ46 or Exon1-polyQ46 aggregates (Q46_RBA).
Aggregation of polyQ peptides is initiated by cleavage of the tag from a GST-polyQ46 or from a MBP-Exon1-polyQ46 fusion protein. The pre-formed aggregates are then incubated with compounds which compete with the [^3H]-radiolabelled ligand for binding to the aggregates. The readout is a scintillation based MicroBeta measurement of radioligand bound to aggregates. The activity was indicated as: +++, <100 nM; ++, 100-500 nM, +, >500 nM.

[2] = molecular target: VHL complex (VHL, Elongin B, Elongin C, Cul2, Rbx1) (Homo sapiens (Human), UniProt P40337); test: VHL SPR assay; type: binding; details: read-out: VHL SPR Kd; immobilized VHL complex
Source text: Surface Plasmon Resonance (SPR) assays have been developed to test the affinity (KD) of VHL or CRBN-based compounds to respective recombinant ligase complex/domain.
The assays are based on surface plasmon resonance (SPR), which enables to measure the changes of the local refractive index due to changes of molecular mass on a gold chip surface in the case of a binding event and in a flowing system. To detect binding between both partners, the respective E3 ligase is immobilized to the chip surface, while the test compounds are flown over the chip surface at a steady velocity. The detected changes in the RU response are indicative of the binding event and are concentration dependent.
These tags provide the anchor for the capturing process to either an NTA or Streptavidin coated chip surface (immobilization level of 3,000-5,000 RU). Because of the rather complex structure of the VHL complex, it was additionally coupled to the chip surface by amino coupling to prevent any protein loss by disruption of the complex in the flowing system.
To detect binding of compounds and extract dissociation constants KD for the tested compounds to the immobilized E3 ligase, concentration response curves of the compounds were recorded. Compounds were usually tested in 10-pt dilutions up to 20 μM final concentration in assay buffer and were flown over the chip at 30 μL/min. […]

| SMILES | IC50 [1] [nM] | Kd [2] [nM] |
| --- | --- | --- |
| CC(C)C[C@H](NC(=O)[C@@H](O)[C@H](N)Cc1ccccc1)C(=O)NCCOCCOCCOCCOCCOCCOCCOCCOCCOCCOCCOCCOCCOCCOCCOCCOc1ccc(C(=O)Nc2ccc3oc(-c4ccc(=O)n(C)n4)nc3c2)nc1 | 100 to 500 | – |
| CC(C)C[C@H](NC(=O)[C@@H](O)[C@H](N)Cc1ccccc1)C(=O)NCCOCCOCCOCCOCCOCCOCCOCCOCCOCCOCCOCCOc1ccc(C(=O)Nc2ccc3oc(-c4ccc(=O)n(C)n4)nc3c2)nc1 | < 100 | – |
| Cc1ncsc1-c1ccc(CNC(=O)[C@@H]2C[C@@H](O)CN2C(=O)[C@@H](NC(=O)CCOCCOCCOCCOCCOCCOCCOCCOCCOCCOCCOCCOCCOc2ccc(C(=O)Nc3ccc4oc(-c5ccc(=O)n(C)n5)nc4c3)nc2)C(C)(C)C)cc1 [26] | 100 to 500 | < 100 |
| Cc1ncsc1-c1ccc(CNC(=O)[C@@H]2C[C@@H](O)CN2C(=O)[C@@H](NC(=O)CCOCCOCCOCCOCCOCCOCCOCCOCCOCCOCCOCCOCCOc2ccc(C(=O)Nc3ccc4oc(-c5ccc(=O)n(C)n5)nc4c3)nc2)C(C)(C)C)cc1 [28] | < 100 | – |
